Molecular target: human serum albumin (HSA) (Homo sapiens, UniProt P02768)
Settings: ratio protein:ligand 1:4; HSA 1 μM, T = 310.15 K, pH 7.4

Protein sequences, listed by entry. Tags and fused reporters are not part of them. Residues count along the entry.
UniProt P02768, 25-609: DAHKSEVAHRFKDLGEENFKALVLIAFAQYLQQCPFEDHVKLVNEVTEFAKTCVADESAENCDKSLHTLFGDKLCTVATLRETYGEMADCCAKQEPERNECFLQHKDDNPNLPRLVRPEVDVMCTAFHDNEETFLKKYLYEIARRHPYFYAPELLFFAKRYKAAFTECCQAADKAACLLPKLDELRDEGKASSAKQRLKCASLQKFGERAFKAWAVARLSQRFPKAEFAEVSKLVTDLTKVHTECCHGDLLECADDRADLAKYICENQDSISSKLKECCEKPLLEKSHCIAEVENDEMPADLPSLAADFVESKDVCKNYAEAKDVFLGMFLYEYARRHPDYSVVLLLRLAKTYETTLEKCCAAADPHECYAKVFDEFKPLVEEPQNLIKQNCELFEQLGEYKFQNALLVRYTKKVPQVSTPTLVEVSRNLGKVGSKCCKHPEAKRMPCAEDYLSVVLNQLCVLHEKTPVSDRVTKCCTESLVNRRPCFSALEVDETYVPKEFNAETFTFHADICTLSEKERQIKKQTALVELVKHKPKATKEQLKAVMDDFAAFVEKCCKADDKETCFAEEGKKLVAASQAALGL

α-Helix Content: 66.3 ± 1.5%
SMILES: O=c1c(O)c(-c2ccc(O)c(O)c2)oc2cc(O)cc(O)c12 [quercetin]
